IC50 data for 1 compound are collected here from patent publication US20230000869A1, “NOVEL ALK2 INHIBITORS AND METHODS FOR INHIBITING BMP SIGNALING” (The Brigham and Women's Hospital, Inc., priority 2017, published 2023).

By UniProt entry, the sequences of proteins in these tests, tags left out. Residues count along the entry.
UniProt P37172, 21-509 limits assumed: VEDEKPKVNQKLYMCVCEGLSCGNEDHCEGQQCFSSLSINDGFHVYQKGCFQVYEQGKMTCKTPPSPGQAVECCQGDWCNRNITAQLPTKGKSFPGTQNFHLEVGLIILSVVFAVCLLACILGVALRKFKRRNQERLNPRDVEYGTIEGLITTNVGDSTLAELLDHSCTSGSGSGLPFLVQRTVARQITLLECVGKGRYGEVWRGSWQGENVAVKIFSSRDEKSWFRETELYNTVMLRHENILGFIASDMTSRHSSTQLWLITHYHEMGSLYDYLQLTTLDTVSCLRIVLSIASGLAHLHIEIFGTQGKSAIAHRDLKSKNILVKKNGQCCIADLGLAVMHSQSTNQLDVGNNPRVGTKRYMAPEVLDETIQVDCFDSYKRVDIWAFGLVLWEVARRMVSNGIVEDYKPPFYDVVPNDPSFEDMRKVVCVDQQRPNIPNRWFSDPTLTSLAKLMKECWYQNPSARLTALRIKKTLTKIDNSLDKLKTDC

One assay concerns the target ALK2 (Mus musculus, UniProt P37172). Put plainly: Luciferase reporter gene assay for ALK2 activity (C2C12 BRE-Luc SMAD1/5/8 reporter, BMP6 agonist). Conditions: read-out: ALK2 IC50, BMP6 50 ng/mL.
The test system of another assay is TGFβ. As to the kind of experiment: Luciferase reporter gene assay for TGFβ activity (HEK293T SBE-Luc SMAD2/3 reporter, TGFβ agonist). Conditions: read-out: TGFβ IC50, TGFβ 5 ng/mL. (Reporter assays use an easily measured gene product as a stand-in for the process of interest.)

`COc1cc2c(-c3cnn4cc(N5CCC(N(C)CCN(C)C)CC5)cnc34)ccnc2cc1F`: the IC50 on ALK2 came out at 35 nM; with TGFβ it was 453 nM.
